Measurements: publication PMC7872235, “Bisphenol-C is the strongest bifunctional ERα-agonist and ERβ-antagonist due to magnified halogen bonding” (PLoS ONE, 2021)

Tested on: ERα and ERβ
Assay: Average of specific activities over binding and reporter gene assays
Design: species or system human
Conditions: average of the five specific activities, BPE-Br = 100

SMILES | Average receptor activity (specific activity)
Oc1ccc(C(c2ccc(O)cc2)C(F)(F)F)cc1 [BPE-F] | 10
Oc1ccc(C(c2ccc(O)cc2)C(Br)(Br)Br)cc1 [BPE-Br] | 100
